# scFv variants of Ab-95 (light chain) against a SARS-CoV-2 spike peptide

Values reported by Engelhart et al. 2022, doi:10.1038/s41597-022-01779-4 (FLAb copy).

All variants were tested on one target, the spike HR2 peptide PDVDLGDISGINAS (SARS-CoV-2).

The variants keep the heavy chain, the linker and the frameworks of Ab-95 (scFv order VH, three GGGGS repeats, VL).
VH: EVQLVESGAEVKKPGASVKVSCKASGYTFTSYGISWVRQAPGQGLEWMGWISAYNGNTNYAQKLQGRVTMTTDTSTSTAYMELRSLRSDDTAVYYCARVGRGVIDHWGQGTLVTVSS
VL: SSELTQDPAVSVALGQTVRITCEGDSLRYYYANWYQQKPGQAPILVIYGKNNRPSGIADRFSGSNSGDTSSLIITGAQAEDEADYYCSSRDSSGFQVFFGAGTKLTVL

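Phage display of a naive human antibody library on the peptide gave the parent. Variants in AAYL52 differ from the parent at up to three CDR positions; double and triple changes were sampled at random. The assay is AlphaSeq: two haploid yeast populations carry antibody and antigen on their surface. Pairs that bind mate more often; barcode pairs of the diploids are counted by sequencing. A regression on co-assayed BCL2-family reference pairs converts the normalised counts of each replicate to an apparent Kd. There are three technical replicates.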

Variants are written as CDR1, CDR2 and CDR3 of the light chain (limits as in the source). Parent: EGDSLRYYYAN, GKNNRPS, SSRDSSGFQVF. The read-out is the apparent dissociation constant on a log10 scale (nM): the lower, the stronger. The mean shown is taken over the replicates in which the pair was detected. "n.d." marks a missing value. The strain was present, yet no cells mated with the target were sequenced in that replicate, which points to weak or no binding. For reference, the parent read 2.31 as the reference entry and 2.25 as a member of this library. As a blank, each scFv also met three strains without target: over library AAYL52, 28% of these pairings were detected, typically at 3.91 and seldom below 2.90. The control count says in how many pairings with the empty strains this scFv gave a signal, with their mean in brackets.

| CDR-L1 | CDR-L2 | CDR-L3 | log10 Kd (nM) by replicate | log10 Kd (nM), mean | signal with controls |
|---|---|---|---|---|---|
| EGDSLRYYYAK | GKYNRPS | SSRDSSAFQVF | n.d. n.d. n.d. | n.d. | 0/9 |
| EGDSLRYYYAN | GKNQRPS | SSRESSEFQVF | 2.39 n.d. 2.11 | 2.25 | 0/9 |
| EGDSLRYWYAN | LKNNRPS | ESRDSSGFQVF | 4.03 n.d. n.d. | 4.03 | 2/9 (3.18) |
| EGDSLRYYYAN | GKNNRPS | SARDSSKFQVF | 3.37 n.d. n.d. | 3.37 | 1/9 (3.45) |
| EGDSLRYQMAN | GKNNRPS | SSRDSSGFQVT | 1.73 1.43 1.21 | 1.46 | 4/9 (3.79) |
| EGTSLRYYCAN | YKNNRPS | SSRDSSGFQVF | 3.31 3.98 n.d. | 3.64 | 6/9 (3.73) |
| EGDLLRYYYAL | GKNNRFS | SSRDSSGFQVF | n.d. n.d. n.d. | n.d. | 1/9 (5.02) |
| EGDSLRYYYAN | EKNNRPS | SSRMLSGFQVF | n.d. 5.32 n.d. | 5.32 | 1/9 (3.28) |
| EGDSLRYYYAN | KKNRRLS | SSRDSSGFQVF | 4.26 5.07 n.d. | 4.67 | 4/9 (4.38) |
| EGDRLRYYYAN | GKNNCPS | SSRDSSGFQYF | n.d. n.d. n.d. | n.d. | 3/9 (4.09) |
| ENDSLRQYYAN | GKNNRPS | ISRDSSGFQVF | 5.57 n.d. n.d. | 5.57 | 1/9 (5.13) |
| EGDSLRYYYAN | CKQNRPS | SSRDSSGFFVF | 3.60 3.81 4.03 | 3.81 | 3/9 (4.66) |
| EGDSLRYYYAN | GKNNRPS | FCRDSSGFQVF | 3.18 3.88 2.79 | 3.28 | 1/9 (4.10) |
| SGDSLRGYYAN | GKNNRPS | SHRDSSGFQVF | 2.28 2.76 1.77 | 2.27 | 1/9 (5.08) |
| KGDSLRYYYAN | GKNNRPS | SSFDSSGFQVF | 2.16 n.d. 3.00 | 2.58 | 3/9 (3.79) |
| EGDSLRYYYAY | GKNNRPS | SDRDWSGFQVF | n.d. n.d. n.d. | n.d. | 3/9 (3.46) |
| EGDSLRYYYAN | GKNNRPS | SSCHSSGFHVF | 3.37 n.d. n.d. | 3.37 | 3/9 (3.61) |
| EGDSLRYYYAN | GKNNRPS | QHRDSNGFQVF | 2.38 n.d. 2.01 | 2.20 | 1/9 (4.22) |
| EGDSLRYYYAN | GKNEMPS | SSRDSSGFQVF | 3.52 3.48 2.88 | 3.29 | 3/9 (3.72) |
| EGDSLRYYYAS | GHNNRPS | SSRISSGFQVF | n.d. n.d. n.d. | n.d. | 2/9 (4.54) |
| EGDHGRYYYAN | GKNNRPS | SSRDSSGRQVF | 3.55 4.06 4.58 | 4.06 | 0/9 |
| EGDSLRYYYAN | SKNNRPS | SSRDSMGFQVF | n.d. 4.00 2.40 | 3.20 | 3/9 (4.23) |
| EGDSLRYYYAN | GWNNRYS | SYRDSSGFQVF | n.d. 3.54 n.d. | 3.54 | 2/9 (3.33) |
| EGDSLRYYYAN | GKNNGPR | SSRDSCGFQVF | n.d. n.d. 4.75 | 4.75 | 1/9 (5.84) |
| EGDSLRYYYAN | GKNNRRS | SSRDSSKFQVF | 2.80 2.96 2.87 | 2.88 | 2/9 (3.72) |
| EGDSLSYYYHN | GKNNRPS | SSRDSSGDQVF | 2.34 2.25 2.14 | 2.24 | 3/9 (4.36) |
| SGDSLRYYGAN | GKNNRQS | SSRDSSGFQVF | 2.19 1.84 1.66 | 1.90 | 0/9 |
| EGDSQRSYYAN | GKNNRPS | SSRDSSGFQVN | 3.02 3.17 4.22 | 3.47 | 2/9 (3.21) |
| EGDSLRMYYAN | GKNCRPM | SSRDSSGFQVF | 4.19 n.d. n.d. | 4.19 | 3/9 (4.02) |
| RGDSLRYYYAN | GKNFRPS | SSRDSSGFMVF | 2.80 2.28 1.73 | 2.27 | 6/9 (3.93) |
| EGKSLRTYYIN | GKNNRPS | SSRDSSGFQVF | 3.53 3.57 3.41 | 3.50 | 4/9 (3.82) |
| EGDSLRYYYAN | GSNNRPS | SSFDNSGFQVF | 3.07 3.15 3.68 | 3.30 | 0/9 |
| EGDSLRYYYIN | GKNNRPS | SSRDNSIFQVF | 5.09 n.d. 4.28 | 4.68 | 4/9 (4.31) |
| EGDSLRYYYAN | SKNNRPS | SSTDSSGFTVF | 5.08 3.82 4.63 | 4.51 | 5/9 (4.46) |
| EGDSLRYYYAN | GKNNRPS | SSRDGSGFQVQ | n.d. 5.52 n.d. | 5.52 | 1/9 (3.31) |
| WGNSLRYYYQN | GKNNRPS | SSRDSSGFQVF | n.d. n.d. n.d. | n.d. | 4/9 (3.77) |
| EGDELRYYYEN | GKNNRPS | STRDSSGFQVF | n.d. n.d. n.d. | n.d. | 2/9 (2.84) |

A selection of 4 entries from above:

| CDR-L1 | CDR-L2 | CDR-L3 | log10 Kd (nM) by replicate | log10 Kd (nM), mean | signal with controls |
|---|---|---|---|---|---|
| EGDSLRYYYAN | KKNRRLS | SSRDSSGFQVF | 4.26 5.07 n.d. | 4.67 | 4/9 (4.38) |
| ENDSLRQYYAN | GKNNRPS | ISRDSSGFQVF | 5.57 n.d. n.d. | 5.57 | 1/9 (5.13) |
| EGDSLRYYYAN | GKNNRPS | SSCHSSGFHVF | 3.37 n.d. n.d. | 3.37 | 3/9 (3.61) |
| EGDSLRYWYAN | LKNNRPS | ESRDSSGFQVF | 4.03 n.d. n.d. | 4.03 | 2/9 (3.18) |